# Key:
# human plasmin = human plasmin (Homo sapiens, UniProt P00747)
# human trypsin (human) = human trypsin (human) (UniProt P07477)
substance,measurement,setting,value
Aprotinin (BPTI),"Plasmin IC50 [nM], inhibition of enzymatic activity, fluorogenic substrate",human plasmin,4 nM
same,"Trypsin IC50 [nM], inhibition of enzymatic activity, fluorogenic substrate",human trypsin (human),9 nM

# Source: patent US20090170766A1, “Chimeric Kunitz Domains and their Use” (BAYER HEALTHCARE AG, priority 2006, published 2009)
